{"source": "patent US20230107277A1", "about": "“SUBSTITUTED PYRIDAZINE COMPOUND” (Astellas Pharma Inc., priority 2020, published 2023)", "key": {"[1]": {"system": "Cuprizone-induced neuroinflammation model", "settings": "mouse, in vivo"}, "[2]": {"system": "α-synuclein fiber-induced neuroinflammation model", "settings": "mouse, in vivo"}, "[3]": {"system": "IL-1β produced in the blood", "settings": "mice, 3 mg/kg oral, blood collected 1 hour and 6 hours after administration (FIG. 3)"}}, "data": [{"smiles": "Cc1c(N[C@@H]2CCCC[C@H]2O)nnc(-c2ccc(C(F)(F)F)cc2O)c1C", "note": "[Example 63, 2-(6-{[(1R,2R)-2-hydroxycyclohexyl]amino}-4,5-dimethylpyridazin-3-yl)-5-(trifluoromethyl)phenol]", "values": [{"measurement": "time to fall in hanging wire test", "setting": "[1]", "result": "significantly prolonged the time to fall"}, {"measurement": "number of falls in hanging wire test", "setting": "[2]", "result": "significantly reduced the number of falls"}, {"measurement": "amount of IL-1β produced in the blood", "setting": "[3]", "result": "decreased the amount of IL-1β produced"}]}]}
